Test results taken from US9233949B2, “Treatment for oxidative stress and/or hypertension” (Georgetown University, priority 2009, dated 2016).

Biological target: T1, AT1 receptor (AT1-R) (Homo sapiens, UniProt P30556)
T1 construct: Frozen human KAN-TS cells were thawed, diluted with assay buffer, homogenized; host or cells: human KAN-TS cells
Test: Angiotensin II, Type 1 receptor radioligand binding displacement
Conditions: 10^−9 M drug concentration, n=2 (FIG. 3A)
Method: Angiotensin II, Type 1 Assay.
Frozen human KAN-TS cells were thawed, diluted with assay buffer, homogenized, and stored on ice until addition to assay tubes. Angiotensin II, Type I (Human) assay was performed using a norvacreen method (CAT #: AT1-100 (Lot #: 75)). A Kd: [^125I]-Tyr4, Ile8-Angiotensin II=0.2 nM with a Bmax (Receptor density): 0.11 μmol/mg protein at an AT1 protein concentration of 8 mg/vial was used as a control. Briefly, the membranes were suspended in 50 mM TRIS-HCl containing 10% glycerol, 100 mM NaCl, 1 mM MgCl2, 0.1% BSA, 0.1 mM and bacitracin (pH 7.2 at 25° C.) in a vial of 1.5 mL. The assay incubation was 180 minutes at 25° C. Filters: GF/B filters were used pre-soaked in 0.1% PEI and a wash buffer (wash 5 times with 1 mL per tube) of 50 mM NaCl.

## CCCc1nc2c(C)cc(-c3nc4ccccc4n3C)cc2n1Cc1ccc(-c2ccccc2C(=O)OC2CC(C)(C)N([O])C(C)(C)C2)cc1 [YK]
  AT1-R displacement activity (radiolabeled Ang II): retains the full AT1-R displacement activity of telmisartan
